## Measured affinities in a library of Ab-91 heavy chain variants

Target: peptide PDVDLGDISGINAS, taken from heptad repeat 2 (HR2) of SARS-CoV-2 spike.

Parent scFv Ab-91: VL joined to VH by three GGGGS repeats. Changes lie in the heavy chain CDRs alone.
VL: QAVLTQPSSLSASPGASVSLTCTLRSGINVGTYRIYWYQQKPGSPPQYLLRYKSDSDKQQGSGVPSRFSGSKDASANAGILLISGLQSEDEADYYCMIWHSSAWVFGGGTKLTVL
VH: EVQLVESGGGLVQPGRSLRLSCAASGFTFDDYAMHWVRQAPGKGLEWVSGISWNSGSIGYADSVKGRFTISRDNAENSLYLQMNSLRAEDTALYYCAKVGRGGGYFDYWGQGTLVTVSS

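In library AAYL51, one, two or three CDR residues were substituted; doubles and triples were drawn at random. In AlphaSeq, yeast of one mating type display the scFv and yeast of the other type display the target. The frequency of each diploid, read from paired DNA barcodes, reflects how well the two displayed proteins bind. The ratio of observed to expected reads was calibrated, replicate by replicate, on BCL2-family standards whose Kd was known from biolayer interferometry. Mating was done three times.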

Variants are written as CDR1, CDR2 and CDR3 of the heavy chain (limits as in the source). Parent: GFTFDDYAMH, GISWNSGSIGYADSVK, VGRGGGYFDY. This list gathers variants with a substitution at G103 (VH, numbered from residue 1). The Kd shown is the geometric mean over detected replicates; a lower Kd is a better binder. "no signal" marks a missing value. The strain was present, yet no cells mated with the target were sequenced in any replicate, which points to weak or no binding. Empty control strains, which show no peptide, gave a signal in 21% of pairings with library AAYL51; the median was 34 µM and 95% of these signals were weaker than 1.8 µM. No background was subtracted.

* GFTFDDYAMH | EISWNSGSIGYADSVK | VYRGTGYFDY: no signal (0 of 3 replicates)
* GFTFDDYAMH | GISTNSYSIGYADSVK | VGRGAGYFDY: 170 µM (3 of 3 replicates)
* GFTKDDYAMH | GISWCSGSIGYADSVK | VGRGRGYFDY: 65 µM (1 of 3 replicates)
* GFTFDDYYMH | GISWNSGSIGYADSNK | VGRGMGYFDY: 260 µM (1 of 3 replicates)
* GFTFDDYAMH | GISWDSGSIGYATSVK | VGRGLGYFDY: 11 µM (2 of 3 replicates)
* WFTFDDYAMH | GKSWNSGSIGYADSVK | VGRGCGYFDY: no signal (0 of 3 replicates)
* GFTFDDYAMH | GISFGSGSIGYADSVK | VGRGYGYFDY: 170 µM (2 of 3 replicates)
* GFTFDDYVMH | GTSWNSGSIGYADSVK | VGRGTGYFDY: 65 µM (3 of 3 replicates)
* GFEFDDYAMH | GISWNSGSIGYADSVK | VTRGVGYFDY: no signal (0 of 3 replicates)
* GFTFDDYAMH | GASWNSGSIGYADSVK | VGRGSGQFDY: 26 µM (1 of 3 replicates)
* GFTFDDYAMH | GISWNSGSIGYADSVK | VGRGWGYFDY: no signal (0 of 3 replicates)
* GFTFDDYAMC | GISWNSGSIGYADSVK | VGRLKGYFDY: no signal (0 of 3 replicates)
* GFTFDDYAMH | GISWNSGSIGYADKHK | VGRGFGYFDY: no signal (0 of 3 replicates)
* GFTFWDYAMH | GISWNSGSIGYADSVK | VGRGIGYFDY: 45 nM (3 of 3 replicates)
* GFTFDDYAMH | GISWNSGSIGYAADVK | VGRGSGYFDY: no signal (0 of 3 replicates)
* GFTFDDYAMH | GISWNSGSIGYADSVK | VLRGSGYFDY: 49 µM (2 of 3 replicates)
* GFTFDDYAMH | GIWWNSGSIGYADSVK | VGRGEGYFWY: 66 µM (1 of 3 replicates)
* GFTFDDYAMH | GISWNSGSAGYADSVK | VGRGMGPFDY: 120 µM (2 of 3 replicates)
* GFAFDDYAMH | GISWNSGSIGYADSNK | VGRGQGYFDY: 230 nM (2 of 3 replicates)
* GFTFDQYAMH | GISWNSGSITYADSVK | VGRGDGYFDY: no signal (0 of 3 replicates)
* GFTFDDYAMH | GISWNSGSIGQADSHK | VGRGDGYFDY: no signal (0 of 3 replicates)
* GFTFDDYAMH | GISLNSGSIGYADLVK | VGRGKGYFDY: 75 µM (3 of 3 replicates)
* GFTFDDYAMH | GISWIEGSIGYADSVK | VGRGYGYFDY: no signal (0 of 3 replicates)
* GFTFEDYAMH | GKSWNSGSIGYADSVK | VGRGVGYFDY: 15 µM (2 of 3 replicates)
* GFTFDDYLMH | GISWNSGSIGYADSVK | VGRGDRYFDY: 100 µM (3 of 3 replicates)
* GMTFDDYAMH | GISWNSGSIGYADSVK | VGRGTGYFDY: 1.4 µM (3 of 3 replicates)
* GFTFDDYAMH | GISWFGGSIGYADSVK | VGRGRGYFDY: 850 µM (1 of 3 replicates)
* GFTFDDYAMH | GISWNSGSIGYADWVK | VGRGWGYFNY: 60 µM (1 of 3 replicates)
* GFTFDDSAMH | GISWNSGSIGYASSVK | VGRGRGYFDY: 19 µM (3 of 3 replicates)
* GFTFDDYGMH | GISWNSGSIGYADSVK | VQRGRGYFDY: 170 pM (3 of 3 replicates)
* GFTMDDYAMH | GISWNSGSIGYADQVK | VGRGQGYFDY: 23 µM (2 of 3 replicates)
* GFTFDDYAMH | GISWNSGSIGYAMSVK | VGRGNGYFDY: no signal (0 of 3 replicates)
* GFPFDDYAMH | GISWNSGSIGNADSVK | VGRGPGYFDY: no signal (0 of 3 replicates)
* GFTSDDYAMH | GISWNSGSIGYADSVR | VGRGHGYFDY: 110 µM (2 of 3 replicates)
* GFTFDDYAMH | GICWNSGSIGYADSVK | VGRGRGYLDY: no signal (0 of 3 replicates)
* GFTFDGYAMH | CISWNSGSIGYADSVK | VGRGDGYFDY: 6.0 µM (1 of 3 replicates)
* GFTFSDYAMH | GISWWSGSIGYADSVK | VGRGPGYFDY: 140 nM (3 of 3 replicates)
* GFTFDDYAMH | GISWNSGSIGYAMSVK | VGRGVGYFDA: 410 nM (3 of 3 replicates)
* GFTFDDYAMH | GISWNSGSIGYADSVK | VGRGTDYFDY: no signal (0 of 3 replicates)
* GFTFDDYAMH | GISWKSSSIGYADSVK | VGRGEGYFDY: 2.1 µM (3 of 3 replicates)
* GFTFDDYAMH | GISWNSGSIGYADSVS | VGRGKGYFDY: no signal (0 of 3 replicates)
* GFTFDDYASH | GISWNSGSIGYADSVK | VGRGCGYFDQ: no signal (0 of 3 replicates)
* HFTFDDYAMH | WISWNSGSIGYADSVK | VGRGKGYFDY: 94 µM (1 of 3 replicates)
* GFTFDDYAMH | GISWNSGSIYYADSVK | VGRGVGWFDY: 5.3 µM (1 of 3 replicates)
* GFTPDDYAMH | GISWNSGSIGYADSVK | YGRGNGYFDY: 29 µM (1 of 3 replicates)
* GFTFDDYAMW | GISWFSGSIGYADSVK | VGRGPGYFDY: 1.9 µM (1 of 3 replicates)
* GFTFDDYAMH | GISWNSGSIGYADSVQ | NGRGHGYFDY: no signal (0 of 3 replicates)
* GFTLDDYAMH | GIIWNSGSIGYADSVK | VGRGWGYFDY: no signal (0 of 3 replicates)
* GFTFDDYAMH | GISWNSGSIGYACSVK | VGRCAGYFDY: 210 µM (1 of 3 replicates)
* GFTFDDYAMM | GISWNSGSIGYAVSVK | VGRGPGYFDY: 4.7 µM (1 of 3 replicates)

The closing 3 entries, repeated:

{"CDR-H1": "GFTLDDYAMH", "CDR-H2": "GIIWNSGSIGYADSVK", "CDR-H3": "VGRGWGYFDY", "apparent Kd": "no signal", "seen in": "0 of 3"}
{"CDR-H1": "GFTFDDYAMH", "CDR-H2": "GISWNSGSIGYACSVK", "CDR-H3": "VGRCAGYFDY", "apparent Kd": "210 µM", "seen in": "1 of 3"}
{"CDR-H1": "GFTFDDYAMM", "CDR-H2": "GISWNSGSIGYAVSVK", "CDR-H3": "VGRGPGYFDY", "apparent Kd": "4.7 µM", "seen in": "1 of 3"}

From the AlphaSeq antibody data of Engelhart et al. 2022 (doi:10.1038/s41597-022-01779-4), copy in the FLAb collection.